Molecular target: T1, renal dipeptidase (E.C.3.4.13.11) (Sus scrofa, UniProt P22412)
T1 construct: solubilized preparation of dipeptidase isolated from hog kidneys; from tissue; host or cells: hog (pig) kidney
T1 sequence (P22412 17-409): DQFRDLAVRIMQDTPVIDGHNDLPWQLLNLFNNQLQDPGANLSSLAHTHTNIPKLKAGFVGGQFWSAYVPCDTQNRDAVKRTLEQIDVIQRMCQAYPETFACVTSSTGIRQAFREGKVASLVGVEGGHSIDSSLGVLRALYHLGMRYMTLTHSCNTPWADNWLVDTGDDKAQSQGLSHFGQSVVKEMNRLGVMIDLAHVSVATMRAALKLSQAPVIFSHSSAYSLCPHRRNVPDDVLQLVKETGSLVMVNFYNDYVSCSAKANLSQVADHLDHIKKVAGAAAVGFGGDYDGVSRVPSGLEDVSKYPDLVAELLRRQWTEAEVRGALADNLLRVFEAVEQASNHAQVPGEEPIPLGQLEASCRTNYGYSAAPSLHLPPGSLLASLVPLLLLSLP
Experiment: Inhibition of GDP (glycyldehydrophenylalanine) hydrolysis by solubilized renal dipeptidase
Format: biochemical, hog (pig) kidney
Details: substrate GDP; concentration necessary to produce 50% inhibition of enzyme, calculated from multiple assays
Method: This measured the ability of compounds to inhibit hydrolysis of glycyldehydrophenylalanine (GDP) by a solubilized preparation of dipeptidase isolated from hog kidneys. The procedure is as follows: to a 1 ml. system containing 50 mM "MOPS" (3-(N-morpholino)propanesulfonic acid) buffer, pH 7.1, is added 5 μg of lyophilized enzyme, and the test compound at a final concentration of 0.1 mM. After a five minute incubation at 37° C., GDP is added to a final concentration of 0.05 mM. Incubation is continued for 10 minutes, at 37° C. and hydrolysis of GDP is measured by the change in optical density with time at 275 nm. Inhibition of the enzyme is gauged by comparison to a standard run containing no inhibitor and is expressed as the inhibitor binding constant, Ki. This is the concentration of the inhibitor which achieves 50% inhibition of enzyme.
A 1 ml. system of 50 mM "MOPS" buffer, pH 7.1, is used. To this is added 5 μg of the pig renal enzyme and an amount of the test compound to bring its final concentration to 0.1 mM. After a five minute incubation at 37° C., an amount of GDP is added to bring its final concentration to 0.05 mM. The system is again incubated for 10 minutes, at 37° C. Hydrolysis of GDP is measured by its change in optical density with time at 275 nm. […]

Ki | SMILES
390 nM | C/C=C(\NC(=O)C1CC1(C)C)C(=O)O (racemic) [Compound 2, Z-2-(2,2-dimethylcyclopropanecarboxamido)-2-butenoic acid]
120 nM | C/C=C(\NC(=O)C1CC1(C)C)C(=O)O (single isomer, unassigned; (+)) [Compound 2a, (+)-Z-2-(2,2-dimethylcyclopropanecarboxamido)-2-butenoic acid]
